In this assay the test system is HBV (HBVcircle transfected HepaRG cells). Description: In vitro anti-HBV drug evaluation in HBVcircle transfected proliferating HepaRG cells. The assay is classed as cell-based. The note with it: 6 days. The procedure: X-TREMEGENE HP DNA transfection reagent (from Roche) was used for transfection. One day before transfection, cells were trypsinized and seeded onto plates, Cells were seeded at 0.8×10^5/well in 24 well plates for HepG2 and proliferation HepaRG cell line, and 3×10^5/well in 24 well plates for differentiated HepaRG cell line.
HBeAg or HBsAg were measured by using the HBeAg or HBsAg ELISA kit (from Autobio) according to the manufacturer's direction.
Next, the feasibility of evaluating anti-HBV drugs using HBVcircle system in cell culture models was assessed. HepG2 cells or proliferating HepaRG cells were transiently transfected with HBVcircle and then treated with indicated concentrations of ETV, HAP 12 (an HBV capsid assembly inhibitor, which belongs to heteroaryldihydropyrimidine (HAP) chemical series, and was published as Example 12 in Bourne et al., J Virol. October 2008; 82(20): 10262-10270) or Pegasys for 6 days. Supernatants were collected and HBsAg, HBeAg and albumin ELISA were performed. Cells were lysed and cell lysates were subjected to southern blot analysis for encapsidated HBV DNA detection, as well as western blot analysis for HBV capsid, HBc and beta-actin detection with specific antibodies respectively.

This note sets out measurements from patent US20170327797A1, “RECOMBINANT HBV CCCDNA, THE METHOD TO GENERATE THEREOF AND THE USE THEREOF” (priority 2015, published 2017).

In the case of pegylated interferon alpha-2a [Pegasys], the HBeAg production result is “inhibited dose dependently” and the HBsAg production result was “inhibited dose dependently”.
